Experimental data reported in ChEMBL document CHEMBL1135370, “Selective urokinase-type plasminogen activator (uPA) inhibitors. Part 2: (3-Substituted-5-halo-2-pyridinyl)guanidines” (Bioorg Med Chem Lett, 2002).
pKi: −log10 of the molar value.

Target: Urokinase-type plasminogen activator (Homo sapiens, UniProt P00749)
Test: In vitro inhibition of human urokinase Plasminogen Activator.

Structure (SMILES)	pKi
N=C(N)Nc1ncc(Cl)cc1C#Cc1ccccc1	6.11
N=C(N)Nc1ncc(Cl)cc1/C=C/C1CCCCC1	6.14
N=C(N)Nc1ncc(Cl)cc1OCC(=O)O	4.04
